Data set [1] relates to hypoxic cells. Conditions: cited from earlier work.
For data set [2] the following is noted: in particular at pH 3 to 8; cited from earlier work.
Data set [3] relates to hypoxic cells. The note with it: cited from earlier work. This is another data set of the same source.
Data set [4] relates to BxPC-3 peritibial tumors. The data set is described as follows: Vascular perfusion (DiI), PEGPH20 and gemcitabine study in BxPC-3 peritibial tumors. The note with it: PEGPH20 4.5 mg/kg at 0 and 66 h; gemcitabine 240 mg/kg ip 24 h after first PEGPH20; 72 h; control 2.89±1.92%.
For data set [5], the system named is BxPC-3 peritibial tumors. The experiment in a line: BrdU proliferation index, PEGPH20 and gemcitabine study in BxPC-3 peritibial tumors. The note with it: BrdU positive nuclei / total nuclei x 100; PEGPH20 4.5 mg/kg at 0 and 66 h; gemcitabine 240 mg/kg ip at 24 h; 72 h; control 12.5 ± 4.28.
The test system of data set [6] is BxPC-3 peritibial tumors. The data set is described as follows: Tumor hypoxia (pimonidazole), PEGPH20 and gemcitabine study in BxPC-3 peritibial tumors. Conditions: PEGPH20 4.5 mg/kg at 0 and 66 h; gemcitabine 240 mg/kg ip at 24 h; 72 h; control 5.71±3.66%.
Data set [7] relates to hypoxic and normoxic cells in culture. The note with it: cited from earlier work.
In data set [8] the test system is cancer cell lines. Conditions: cited from earlier work.
For data set [9], the system named is hypoxic cells. Conditions: cited from earlier work. The source holds these as a separate data set.

The source of these data is patent US9278124B2, “Hypoxia and hyaluronan and markers thereof for diagnosis and monitoring of diseases and conditions and related methods” (dated 2016).

Regarding `NC(=O)c1cc(N(CCCl)CCCl)c([N+](=O)[O-])cc1[N+](=O)[O-]`, the “increased hypoxic-specific toxicity compared to CB1954” value in [1] is “about 3.6 fold”. For the compound `CC(OC(=O)N(N(CCCl)S(C)(=O)=O)S(C)(=O)=O)c1ccc([N+](=O)[O-])cc1` (stereo not drawn), the “solubility in aqueous solution” value in data set [2] is “rather insoluble in aqueous solution”. For “[Co(III)(3-methyl-2,4-pentanedionato)2(N,N-bis(2-chloroethyeethylenediamine)]^+”, in [3], the hypoxia specific cytotoxicity was 20-25. Take `Nc1ccn([C@@H]2O[C@H](CO)[C@@H](O)C2(F)F)c(=O)n1`: in data set [4], the “mean area of patent, perfusable tumor blood vessels” value is reported as 2.72±1.83%. In data set [5], the “Anti-Tumor Activity (Proliferation Index), Mean ± SD” value amounted to 8.37 ± 3.02. Besides, the “mean percent hypoxic area in whole tumor section” value in data set [6] amounted to 5.32±5.31%. `Nc1n[n+]([O-])c2ccccc2[n+]1[O-]`: the “fold more toxic to hypoxic than to normoxic cells” value in [7] is 50-200 fold. `Cn1c(COP(=O)(NCCBr)NCCBr)cnc1[N+](=O)[O-]`: the “improved potency compared to TH-281” value in [8] is on record as 10 fold.

Regarding `CO[C@@]12C(COC(N)=O)C3=C(C(=O)C(C)=C(N)C3=O)N1C[C@@H]1N[C@@H]12` (stereo partly drawn), in data set [9], the hypoxic cytotoxicity ratio was 1 to 5.
